Consider one molecule from paper PMC5507339, “Small-molecule inhibition of pyruvate phosphate dikinase targeting the nucleotide binding site” (PLoS ONE, 2017).

This assay deals with T1, PPDK from Flaveria trinervia (Flaveria trinervia, UniProt P22221).
T1 construct: His10 (N); TEV cleavage site (N); made in house; host or cells: E. coli BL21 (DE3)
T1 sequence (P22221 80-953): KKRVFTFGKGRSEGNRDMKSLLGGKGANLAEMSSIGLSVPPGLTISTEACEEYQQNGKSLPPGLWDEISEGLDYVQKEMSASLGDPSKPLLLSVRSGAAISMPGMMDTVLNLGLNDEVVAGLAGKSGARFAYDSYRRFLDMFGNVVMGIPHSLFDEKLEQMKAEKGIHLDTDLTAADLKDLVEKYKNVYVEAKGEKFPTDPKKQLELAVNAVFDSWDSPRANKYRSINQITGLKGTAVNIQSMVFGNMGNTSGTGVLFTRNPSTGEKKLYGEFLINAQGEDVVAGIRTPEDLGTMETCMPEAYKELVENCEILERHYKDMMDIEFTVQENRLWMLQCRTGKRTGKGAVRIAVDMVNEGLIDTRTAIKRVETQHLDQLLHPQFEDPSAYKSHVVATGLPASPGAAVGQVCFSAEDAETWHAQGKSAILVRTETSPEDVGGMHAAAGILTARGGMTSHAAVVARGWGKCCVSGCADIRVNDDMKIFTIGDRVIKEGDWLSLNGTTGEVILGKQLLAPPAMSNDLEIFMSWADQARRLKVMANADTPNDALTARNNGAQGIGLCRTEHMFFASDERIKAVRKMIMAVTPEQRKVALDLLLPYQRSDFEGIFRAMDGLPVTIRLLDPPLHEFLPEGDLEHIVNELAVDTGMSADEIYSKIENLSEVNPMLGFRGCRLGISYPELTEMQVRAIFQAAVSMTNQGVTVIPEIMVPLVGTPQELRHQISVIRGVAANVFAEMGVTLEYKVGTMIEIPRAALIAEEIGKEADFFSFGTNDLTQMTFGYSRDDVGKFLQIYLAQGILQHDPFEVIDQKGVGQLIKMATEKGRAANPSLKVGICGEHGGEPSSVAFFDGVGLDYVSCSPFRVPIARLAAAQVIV
The class given is biochemical.

Take `O=C1Nc2cc(Br)ccc2/C1=C1\N=c2ccccc2=C1NO` [BIO, 6-bromoindirubin-3’-monoxime]: the “Residual PPDK activity relative to DMSO-treated controls” value is on record as “about 15%”.
